Measured values from patent US6699860B2, “Di-substituted aminomethyl-chroman derivative beta-3 adrenoreceptor agonists” (Bayer Pharmaceuticals Corporation, priority 2000, dated 2004).

Chains of the proteins cited; added tags and fusions are not shown.
UniProt P13945, whole entry: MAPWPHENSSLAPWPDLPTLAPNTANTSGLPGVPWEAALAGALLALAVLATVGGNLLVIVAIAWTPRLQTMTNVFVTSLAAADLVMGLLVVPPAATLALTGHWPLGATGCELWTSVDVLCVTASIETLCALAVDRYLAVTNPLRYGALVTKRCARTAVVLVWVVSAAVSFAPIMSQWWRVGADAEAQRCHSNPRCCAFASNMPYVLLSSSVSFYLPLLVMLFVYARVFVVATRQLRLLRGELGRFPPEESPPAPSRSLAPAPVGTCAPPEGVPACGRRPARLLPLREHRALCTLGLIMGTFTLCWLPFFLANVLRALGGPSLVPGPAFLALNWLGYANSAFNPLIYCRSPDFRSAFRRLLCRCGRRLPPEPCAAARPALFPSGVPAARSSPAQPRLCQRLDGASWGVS

Target: human beta-3-adrenergic receptor (Homo sapiens, UniProt P13945)
Assay: cAMP production (SPA) in CHO cells stably expressing human beta-3-adrenergic receptor, agonist activity
Details: read-out: Beta-3 Agonistic Activity, EC50 values, cAMP production in CHO cells expressing human beta-3-adrenergic receptor, compounds binned (≦1 μM or >1 μM)

Row | EC50 (tested form: HCl) [µM] | EC50 [µM] | SMILES
1 | ≤ 1 |  | O=C(O)c1ccc(-c2ccc3c(c2)CC[C@H](CNC[C@H](O)CSc2ccccc2)O3)cc1
2 |  | ≤ 1 | COCCNc1cc(-c2ccc3c(c2)CC[C@H](CNC[C@H](O)COc2ccccc2)O3)ccc1C(=O)O

Where two headings read alike, the source gives them in different places.
